Data as given in PubChem BioAssay AID434962 (The Scripps Research Institute Molecular Screening Center, 2010).
This is a selection; strong and weak results do not stand in their true shares. The source made the active and inactive calls.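 Rule for the calls: active = percent inhibition above the average of all tested compounds plus 3 SD, set per screening campaign (cut at about 16% in these data); inactive = the rest.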

By UniProt entry, the sequences of proteins in these tests, tags left out.
UniProt P14735, whole entry: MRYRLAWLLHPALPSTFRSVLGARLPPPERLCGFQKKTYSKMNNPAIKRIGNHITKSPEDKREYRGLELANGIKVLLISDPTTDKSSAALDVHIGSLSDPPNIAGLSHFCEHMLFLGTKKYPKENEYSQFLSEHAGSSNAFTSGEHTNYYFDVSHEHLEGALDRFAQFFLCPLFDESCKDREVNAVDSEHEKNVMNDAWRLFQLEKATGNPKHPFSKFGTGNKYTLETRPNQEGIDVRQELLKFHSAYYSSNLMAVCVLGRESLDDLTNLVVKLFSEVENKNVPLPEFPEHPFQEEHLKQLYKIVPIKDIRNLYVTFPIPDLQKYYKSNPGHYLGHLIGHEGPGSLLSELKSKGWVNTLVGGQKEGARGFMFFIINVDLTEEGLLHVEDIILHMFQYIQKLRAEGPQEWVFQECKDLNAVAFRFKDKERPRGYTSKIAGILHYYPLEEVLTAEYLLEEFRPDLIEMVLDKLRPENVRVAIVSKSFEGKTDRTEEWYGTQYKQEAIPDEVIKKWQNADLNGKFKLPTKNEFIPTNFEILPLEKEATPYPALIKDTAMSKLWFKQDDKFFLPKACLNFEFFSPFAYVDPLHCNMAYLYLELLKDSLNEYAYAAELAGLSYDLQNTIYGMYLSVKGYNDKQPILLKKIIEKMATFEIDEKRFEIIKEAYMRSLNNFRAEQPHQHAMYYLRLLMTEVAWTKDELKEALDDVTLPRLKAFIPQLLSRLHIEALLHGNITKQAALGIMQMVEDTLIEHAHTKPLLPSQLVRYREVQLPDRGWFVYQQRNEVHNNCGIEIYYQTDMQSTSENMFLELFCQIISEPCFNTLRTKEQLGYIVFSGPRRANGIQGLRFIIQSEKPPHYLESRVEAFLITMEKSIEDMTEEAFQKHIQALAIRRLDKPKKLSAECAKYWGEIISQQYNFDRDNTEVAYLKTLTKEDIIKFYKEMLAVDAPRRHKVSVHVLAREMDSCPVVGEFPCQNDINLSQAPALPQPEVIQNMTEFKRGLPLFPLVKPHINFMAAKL

molecular target: Insulin-degrading enzyme (Homo sapiens) (UniProt P14735); experiment: human IDE inhibitors in live cells, primary screen, fluorescence polarization, HEK cells, FAbetaB substrate (AID 434962); conditions: FAbetaB cleavage, at 5.59 µM, stronger effect = higher value;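 note: IDE supplied by intact live HEK cells; FP after avidin binding of uncleaved biotin substrate so inhibition keeps polarization high; 0% = DMSO wells and 100% = 60 µM reference IDE inhibitor Ii1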

Structure (SMILES) | inhibition
COc1ccc(C(=O)NCC2(N3CCOCC3)CCCCC2)cc1OC | inactive: -8.58%
O=C(NCC1(N2CCOCC2)CCCCC1)c1cc(Br)ccc1Cl | inactive: 0.39%
COc1cc(C(=O)NCC2(N3CCOCC3)CCCCC2)cc(OC)c1C | inactive: -3.91%
CCc1cc(C(=O)NCC2(N3CCCCC3)CCCCC2)sc1C | inactive: 0.84%
O=C(OC1CN2CCC1CC2)C1c2ccccc2C=Cc2ccccc21 (stereo not drawn) | inactive: 5.17%
N/C(=N\O)c1c(N)no[n+]1[O-] | inactive: -4.78%
CCOC(=O)N1CCC(Nc2ccc(C)cc2)CC1 | inactive: 0.79%
CC(C)(C)OC(=O)N1CCC(N(C(=O)c2ccccc2)c2ccc(Cl)cc2)CC1 | inactive: 5.64%
N#Cc1ccc(C(=O)NCC2(N3CCCCC3)CCCCC2)cc1 | inactive: 0.09%
CCCN1CCC(Nc2cc(OC)cc(OC)c2)CC1 | inactive: -1.12%
c1ccc(CN2CCC(Nc3ccccc3)CC2)cc1 | inactive: -0.98%
CN(C)C1(CNC(=O)c2cccc(C#N)c2)CCCCC1 | inactive: -1.2%
Fc1ccccc1NC1CCN(Cc2ccccc2)CC1 | inactive: 1.9%
Cc1ccc(C(=O)NCC2(N3CCCCC3)CCCCC2)o1 | inactive: -11.1%
COc1cc(OC)cc(C(=O)NCC2(N3CCCCC3)CCCCC2)c1 | inactive: -2.4%
CN(C)c1ccc(C(=O)NCC2(N3CCCCC3)CCCCC2)cc1 | inactive: -6.16%
O=C(NCC1(N2CCCCC2)CCCCC1)c1ccco1 | inactive: -6.84%
CCN1CCC(Nc2cccc(F)c2)CC1 | inactive: 6.28%
CCCOc1ccc(C(=O)NCC2(N(C)C)CCCCC2)cc1 | inactive: -2.25%
O=C(O)C1(Nc2ccccc2)CCN(Cc2ccccc2)CC1 | inactive: -1.81%
CC(C)(C)OC(=O)N1CCC(Nc2ccccc2)CC1 | inactive: -3.05%

Structure (SMILES) | inhibition
CN1CCC(Nc2ccc(F)c(Cl)c2)CC1 | inactive: 1.8%
CCOc1ncccc1C(=O)NCC1(N2CCOCC2)CCCCC1 | inactive: -2.05%
CCCOc1ccc(C)cc1CN(CCCl)CCCl | inactive: 1.55%
CN1CCC(Nc2ccc(Cl)cc2)CC1 | inactive: -2.02%
CCC(CO)(C(=O)OC1CN2CCC1CC2)c1ccccc1 (stereo not drawn) | inactive: -0.38%
COc1cc(OC)cc(C(=O)NCC2(N3CCOCC3)CCCCC2)c1 | inactive: -0.58%
COc1cccc(C(=O)N(c2cc(C)cc(C)c2)C2CCN(C(=O)OC(C)(C)C)CC2)c1 | inactive: 5.62%
CSc1ccccc1C(=O)NCC1(N2CCCCC2)CCCCC1 | inactive: 4.72%
O=C(NCC1(N2CCCCC2)CCCCC1)c1cccs1 | inactive: -2.07%
O=C(NCC1(N2CCCCC2)CCCCC1)c1ccc(=O)[nH]c1 | inactive: 2.21%
CC(C)(C)OC(=O)N1CCC(N(C(=O)c2ccccc2)c2ccc(F)cc2)CC1 | inactive: 5.02%
COc1ccc(C(=O)NCC2(N3CCCCC3)CCCCC2)c(OC)c1OC | inactive: -3.41%
COc1ccc(C(=O)NCC2(N3CCCCC3)CCCCC2)cc1 | inactive: 5.31%
CCOC(=O)N1CCC(Nc2ccc(OC)cc2)CC1 | inactive: -2.02%
COc1ccc(Cl)cc1C(=O)NCC1(N2CCOCC2)CCCCC1 | inactive: 6.05%
O=C(NCC1(N2CCCCC2)CCCCC1)c1ccc(Cl)s1 | inactive: 3.38%
N#CC1(Nc2ccccc2)CCN(Cc2ccccc2)CC1 | inactive: -7.29%
O=C(OC1CN2CCC1CC2)C1c2ccccc2Oc2ccccc21 (stereo not drawn) | inactive: 0.82%
O=C(NCC1(N2CCOCC2)CCCCC1)c1cc2ccccc2o1 | inactive: 4.12%
Cc1cc(C)cc(N(C(=O)c2ccccc2)C2CCN(C(=O)OC(C)(C)C)CC2)c1 | inactive: 10.5%
O=C(NCC1(N2CCCCC2)CCCCC1)c1ccc(Cl)nc1 | inactive: 3.68%

Structure (SMILES) | inhibition
COc1ccc(NC2CCN(CCc3ccccc3)CC2)c(OC)c1 | inactive: 3.25%
O=C(NCC1(N2CCCCC2)CCCCC1)c1ccc(F)cc1 | inactive: -8.66%
CCOc1ccc(C)cc1CN(CCCl)CCCl | inactive: 2.44%
Cc1ccc(OCC(C)C)c(CN(CCCl)CCCl)c1 | inactive: -0.68%
CCOC(=O)N1CCC(Nc2cccc(C)c2)CC1 | inactive: 1.34%
O=C(NCC1(N2CCCCC2)CCCCC1)c1cccc([N+](=O)[O-])c1 | inactive: 4.03%
N#CC1(Nc2ccccc2)CCN(CCc2ccccc2)CC1 | inactive: 2.91%
CCN1CCC(Nc2ccc(Cl)cc2)CC1 | inactive: 0.98%
O=C(NCC1(N2CCCCC2)CCCCC1)c1ccc(OC(F)F)cc1 | inactive: -0.01%
CN1CCN(CCOC(=O)C(O)(c2ccccc2)c2ccccc2)CC1 | inactive: 2.88%
COc1ccc(NC2CCN(C(=O)OC(C)(C)C)CC2)cc1 | inactive: 5.16%
COc1cc(C(=O)NCC2(N3CCCCC3)CCCCC2)ccc1OC(F)F | inactive: 2.89%
O=C(NCC1(N2CCOCC2)CCCCC1)c1cc(=O)[nH]c2ccccc12 | inactive: -3.87%
O=C(NCC1(N2CCCCC2)CCCCC1)c1cccc(C(F)(F)F)c1 | inactive: -0.06%
O=C(NCC1(N2CCOCC2)CCCCC1)c1cc(F)c(F)cc1Cl | inactive: 3.35%
COc1cc(OC)c(C(=O)NCC2(N(C)C)CCCCC2)cc1OC | inactive: -7.38%
CN(C)c1cccc(C(=O)NCC2(N3CCCCC3)CCCCC2)c1 | inactive: 3.67%
COc1ccc(CN(CCCl)CCCl)cc1Cl | inactive: 0.8%
CC(C)c1ccc(NC2CCN(C(=O)OC(C)(C)C)CC2)cc1 | inactive: 3.63%
CN1CCC(Nc2cccc(F)c2)CC1 | inactive: -3.65%
O=C(NCC1(N2CCCCC2)CCCCC1)c1cncc(Br)c1 | inactive: -1.93%
